We go through one compound from US20240350536A1, “Application of Bi-Phenols in Anti-ototoxicity and Hearing Protection” (Northwestern University, priority 2017, published 2024).

Amino acid sequences for entries named in this document (tags omitted).
UniProt Q9NTG7, whole entry, species assumed: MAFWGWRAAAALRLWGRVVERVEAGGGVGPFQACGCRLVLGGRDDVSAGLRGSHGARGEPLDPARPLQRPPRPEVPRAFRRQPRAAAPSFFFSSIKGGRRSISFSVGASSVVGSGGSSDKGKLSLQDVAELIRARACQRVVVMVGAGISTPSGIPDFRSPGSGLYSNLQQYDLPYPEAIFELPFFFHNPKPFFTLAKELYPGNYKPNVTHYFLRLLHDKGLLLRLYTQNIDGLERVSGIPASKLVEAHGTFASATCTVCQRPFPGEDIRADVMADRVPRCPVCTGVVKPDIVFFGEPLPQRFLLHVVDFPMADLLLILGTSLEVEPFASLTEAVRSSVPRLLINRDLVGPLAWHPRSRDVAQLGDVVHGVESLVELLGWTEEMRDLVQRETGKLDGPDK

The subject of one test is mice. Description: Auditory Brainstem Response (ABR) threshold shift in cisplatin-treated mice. It counts as in vivo. As to conditions: summary of ABR study.
The test system of test [1] is outer hair cell (OHC) function. It counts as in vivo, mice. As to conditions: cisplatin 15 mg/kg. As to the method: FIG. 12A-12E. HNK protection against cisplatin-induced changes of DPOAE amplitude. […] The DPOAE shift, normalized to Day 0, of all the groups are plotted in (FIG. 12B to FIG. 12E). […] The results of the 2 animals in Cis 15 mg/kg group on Day 14 were both plotted in (FIG. 12B) as the dashed lines and open circles. […].
Distortion product oto-acoustic emissions (DPOAEs), which are an indication of outer hair cell (OHC) function, were measured in a separate series of experiments to estimate OHC protection by honokiol (HNK). (See FIG. 12A-12E). […] (See FIGS. 12D and 12E). After pre-treatment with HNK at a dosage of 10 mg/kg, the DPOAE shift was observed only at frequencies of 27 kHz and higher with a much smaller amplitude. (See FIG. 12D).

A further test has as its target SIRT3 (Homo sapiens, UniProt Q9NTG7). As to conditions: literature statement; cited from earlier work.

Take `C=CCc1ccc(O)c(-c2ccc(O)c(CC=C)c2)c1` [honokiol, 2-(4-hydroxy-3-prop-2-enyl-phenyl)-4-prop-2-enyl-phenol]: in the test on mice, the “protection of hearing threshold shift induced by cisplatin” value is given as “almost completely protects”. Further, in test [1] (HNK 20 mg/kg), the DPOAE shift result is on record as “No DPOAE shift”. In addition, the “frequencies at which DPOAE shift was observed” value in test [1] (HNK pre-treatment 10 mg/kg, much smaller amplitude) is listed as at least 27 kHz. Moreover, the “activation of SIRT3” value at SIRT3 was “directly activates SIRT3”.
